Tested on: Chinese hamster V79 cells
Experiment: Radiotoxicity in cultured mammalian cells (colony survival)
Assay type: cell-based
Excerpt: This radiopharmaceutical localizes predominantly in the bone where it emits short-range conversion and Auger electrons. […] The highest concentration of ^117mSn are found in the vicinity of bone metastases. Accordingly, it is of interest to explore the potential of ^117mSn(Sn^4+)DTPA as an agent to sterilize bone metastases. The present study examines the radiotoxicity of composition of the invention when incorporated into cultured mammalian cells.
Chinese hamster V79 cells were suspended in culture medium containing various concentrations of ^117mSn(Sn^4+)DTPA for 14 h and then washed free of all extracellular radioactivity. The cells were then resuspended in fresh culture medium and maintained at 10.5° C. on a rocker-roller for 72 h. Cells were then washed again, serially diluted, and seeded into culture dishes. After 1 week the colonies were stained and counted, the surviving fraction compared to unlabeled controls was determined.
Cellular uptake of ^117mSn was linearly dependent on the extracellular concentration of ^117mSn(Sn^4+)DTPA. […] When the survival fraction was plotted as a function of cellular uptake of radioactivity, an exponential response reminiscent of high-LET type radiation emerged. The cellular uptake required to achieve 37% survival was 0.95 mBq/cell. Cellular dosimetry calculations indicate that this corresponds to a mean lethal dose D37 of 0.76 Gy. […] Therefore, the relative biological effectiveness of ^117mSn(Sn^4+)DTPA compared to P-32 orthophosphate is 9.3 in these controlled experiments, but can be expected to be as much as 20 or more in the final clinical application, depending upon the tumor burden of the patient.

Substance: ^117mSn (Sn^4+) diethylenetriaminepentaacetic acid (DTPA) [^117mSn(Sn^4+)DTPA]
- mean lethal dose D37 (V79 cells, cellular dosimetry calculations): 0.76 Gy
- relative biological effectiveness compared to P-32 orthophosphate (controlled experiments in V79 cells): 9.3
- relative biological effectiveness compared to P-32 orthophosphate, expected (final clinical application, depending upon the tumor burden of the patient): ≥ 20

— US6541514B2, “Process for the manufacture of 117Sn diethylenetriaminepentaacetic acids” (Brookhaven Science Associates, LLC, priority 2001, dated 2003)
